Test system: HCV replicon (1b) in Clone A cells (derived from Huh-7)
Assay: HCV replicon ELISA (NS5a) in Clone A cells
Assay type: cell-based, Hepatitis C virus
Details: 3 days incubation, reference compound
Protocol: The ability of the compounds of the present invention to inhibit Hepatitis C virus replicon constitutively expressed in a human liver cell line was established by the following experimental procedure:
Clone A cells (licensed from Apath, LLC) are derived from Huh-7 cells (human hepatoma cell line) and constitutively express of the HCV replication proteins with concomitant amplification the HCV replicon (1b) genome. Cells are maintained and passaged in DMEM/10% FCS/1 mg/ml G418 (Geneticin from Gibco #11811-023; other media components as described below in “elisa media”). Care should be taken to maintain cell monolayers at a subconfluent state by 1:3 or 1:4 passages every 3-4 days. The replicon is extremely sensitive to the cellular metabolism/proliferation state and replicon copy number will rapidly decline in confluent monolayers (resting cells). Under ideal conditions each cell has, on average, 1000 copies of the HCV replicon genome. […]
10 μl of compounds (in DMSO) are added to column 3 of the mother plate. […] Mother plates are set aside until ready for serial dilution to be performed. […]

## Interferon-a2: reference compound of the HCV replicon ELISA assay
  IC50: 4-30 U/ml

Source: US7250441B2, “Carbazole and cyclopentaindole derivatives to treat infection with Hepatitis C virus” (priority 2004, dated 2007)
